Experimental data: patent publication US7173024B2, “Compounds having prolyl oligopeptidase inhibitory activity, methods for their preparation and their use” (Orion Corporation, priority 2001, dated 2007)

Amino acid sequences for entries named in this document (tags omitted). A change or cut given only in a name is not applied to a line headed by its entry.
UniProt P23687: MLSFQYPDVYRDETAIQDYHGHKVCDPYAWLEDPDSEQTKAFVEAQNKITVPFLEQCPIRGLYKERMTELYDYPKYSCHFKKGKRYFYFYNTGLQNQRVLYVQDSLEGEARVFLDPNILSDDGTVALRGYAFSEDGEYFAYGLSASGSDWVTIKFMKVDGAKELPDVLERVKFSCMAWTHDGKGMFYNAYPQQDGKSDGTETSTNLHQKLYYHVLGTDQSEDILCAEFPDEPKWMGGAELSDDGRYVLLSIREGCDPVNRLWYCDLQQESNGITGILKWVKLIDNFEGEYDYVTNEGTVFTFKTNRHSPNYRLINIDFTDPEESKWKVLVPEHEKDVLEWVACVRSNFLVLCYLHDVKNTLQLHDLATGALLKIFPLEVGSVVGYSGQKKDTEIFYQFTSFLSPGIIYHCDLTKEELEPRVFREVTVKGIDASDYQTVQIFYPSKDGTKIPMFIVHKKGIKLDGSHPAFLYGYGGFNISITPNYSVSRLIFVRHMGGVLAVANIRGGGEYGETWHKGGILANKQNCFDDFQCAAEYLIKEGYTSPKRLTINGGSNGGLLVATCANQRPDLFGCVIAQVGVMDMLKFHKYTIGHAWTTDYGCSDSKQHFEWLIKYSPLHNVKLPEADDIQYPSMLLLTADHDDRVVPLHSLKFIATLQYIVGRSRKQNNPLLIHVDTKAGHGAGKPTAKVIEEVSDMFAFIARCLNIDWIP

Target: T1, pig brain prolyl oligopeptidase (Sus scrofa, UniProt P23687)
T1 construct: The brains were homogenized with a glass-teflon homogenisator; from tissue; host or cells: pig brain (excluding cerebellum and most of the brain stem), 10000 g supernatant of the homogenate
Experiment: Inhibition of prolyl oligopeptidase activity of pig brain (Suc-Gly-Pro-AMC, fluorometric)
Type: biochemical
Details: pig brain homogenate supernatant, 30° C., pH 7.0
Description: The whole pig brains, excluding cerebellum and most of the brain stem, of three pigs were placed in liquid nitrogen within 30 min from killing and stored at −80° C. until homogenized. The brains were homogenized with a glass-teflon homogenisator in 3 volumes (w/v) of ice-cold 0.1 M sodium-potassium phosphate buffer (pH 7.0) and the homogenates were centrifuged for 20 min at 4° C. at 10000 g. The supernatants were collected, pooled and stored in small aliquots at −80° C. until used. The supernatant was thawn in ice just before activity assay and diluted in a ratio 1:2 with homogenisation buffer (=enzyme preparation). […]
Formation of 7-amido-4-methylcoumarin was determined fluorometrically with microplate fluorescence reader (excitation at 360 nm and emission at 460 nm). […]
The prolyl oligopeptidase activity was calculated with the following formula in the presence of various concentrations of novel compounds. To reveal the inhibitory potency of the novel compound, activities (% of control) were plotted against the log concentration of the compound, and the IC50 value was determined by non-linear regression utilizing GraphPad Prism software. […]

Row | Compound | IC50 [nM]
1 | O=C([C@@H]1CCCN1C(=O)CCCC(=O)N1CCC[C@H]1C(=O)N1CCCC1)N1CCCC1 [Example 4, Glutaric acid di-(L-prolyl-pyrrolidine)amide] | 48
2 | N#C[C@@H]1CCCN1C(=O)[C@@H]1CCCN1C(=O)c1cccc(C(=O)N2CCC[C@H]2C(=O)N2CCCC2)c1 [Example 12, Isophthalic acid L-prolyl-2(S)-cyanopyrrolidine L-prolyl-pyrrolidine amide] | 1.5
